In patent publication US20040121316A1 (priority 2002, published 2004):

Molecular target: T1, recombinant HIV-1 protease (Human immunodeficiency virus type 1 group M subtype B, UniProt P04585)
T1 construct: Enzyme: recombinant HIV-1 protease expressed in E.Coli; purchased Bachem California, Inc. H-9040; host or cells: E. coli
Assay: biochemical

[1] = read-out: Enzymatic assay WT IC50/nM

Compound: CCOP(=O)(COC1CCN(CC(NC(=O)OC2COC3OCCC23)C(O)CN(CC(C)C)S(=O)(=O)c2ccc(OC)cc2)CC1)OCC (stereo not shown)
- Ki (Ki): > 1000 pM

Compound: COc1ccc(S(=O)(=O)N(CC(C)C)CC(O)C(CNc2ccc(CP(=O)(O)O)cc2)NC(=O)OC2COC3OCCC23)cc1 (stereo not shown)
- Ki (Ki): 100 to 1000 pM

Compound: CCOP(=O)(Cc1ccc(CNCC(NC(=O)OC2COC3OCCC23)C(O)CN(CC(C)C)S(=O)(=O)c2ccc(OC)cc2)cc1)OCC (stereo not shown)
- Ki (Ki): > 1000 pM

Compound: COc1ccc(S(=O)(=O)N(CC(C)C)CC(O)C(CNCc2ccc(CP(=O)(O)O)cc2)NC(=O)OC2COC3OCCC23)cc1 (stereo not shown)
- Ki (Ki): > 1000 pM

Compound: CCOP(=O)(Cc1ccc(CN(C)CC(NC(=O)OC2COC3OCCC23)C(O)CN(CC(C)C)S(=O)(=O)c2ccc(OC)cc2)cc1)OCC (stereo not shown)
- Ki (Ki): 100 to 1000 pM

Compound: COc1ccc(S(=O)(=O)N(CC(C)C)CC(O)C(CN(C)Cc2ccc(CP(=O)(O)O)cc2)NC(=O)OC2COC3OCCC23)cc1 (stereo not shown)
- Ki (Ki): > 1000 pM

Compound: CCOP(=O)(COc1ccc2c(c1)CN(CC(NC(=O)OC1COC3OCCC13)C(O)CN(CC(C)C)S(=O)(=O)c1ccc(OC)cc1)C2)OCC (stereo not shown)
- Ki (Ki): > 1000 pM

Compound: COc1ccc(S(=O)(=O)N(CCN2CCOCC2)CC(O)C(Cc2ccc(OCP(=O)(O)O)cc2)NC(=O)OC2COC3OCCC23)cc1 (stereo not shown)
- Ki (Ki (pM)): > 1000 pM

Compound: COc1ccc(S(=O)(=O)N(CCN2CCOCC2)CC(O)C(Cc2ccc(OCP(=O)(OCc3ccccc3)OCc3ccccc3)cc2)NC(=O)OC2COC3OCCC23)cc1 (stereo not shown)
- Ki (Ki (pM)): 100 to 1000 pM

Compound: COc1ccc(S(=O)(=O)N(CC2CCNCC2)CC(O)C(Cc2ccc(O)cc2)NC(=O)OC2COC3OCCC23)cc1 (stereo not shown)
- Ki (Ki (pM)): > 1000 pM

Compound: CCOP(=O)(COc1ccc(CC(NC(=O)OC2COC3OCCC23)C(O)CN(CC2CCN(C)CC2)S(=O)(=O)c2ccc(OC)cc2)cc1)OCC (stereo not shown)
- Ki (Ki (pM)): 100 to 1000 pM

Compound: Cc1cccc(C)c1OCC(=O)NC(Cc1ccc(OCP(=O)(O)O)cc1)C(O)CN(CC(C)C)S(=O)(=O)c1ccc(N)cc1 (stereo not shown)
- Ki (Ki (pM)): > 1000 pM

Compound: Cc1ccc(C(=O)NC(Cc2ccc(OCP(=O)(O)O)cc2)C(O)CN(CC(C)C)S(=O)(=O)c2ccc(N)cc2)cc1O (stereo not shown)
- Ki (Ki (pM)): 100 to 1000 pM

Compound: Cc1ccc(C(=O)NC(Cc2ccc(OCP(=O)(OCc3ccccc3)OCc3ccccc3)cc2)C(O)CN(CC(C)C)S(=O)(=O)c2ccc(N)cc2)cc1O (stereo not shown)
- Ki (Ki (pM)): 100 to 1000 pM

Compound: CC(C)CN(CC(O)C(Cc1ccc(OCP(=O)(O)O)cc1)NC(=O)OC1COC2OCCC12)S(=O)(=O)c1ccc(CN2CCOCC2)cc1 (stereo not shown)
- Ki (Ki (pM)): > 1000 pM

Compound: CC(C)CN(CC(O)C(Cc1ccc(OCP(=O)(O)O)cc1)NC(=O)OC1COC2OCCC12)S(=O)(=O)N1CCN(C)CC1 (stereo not shown)
- Ki (Ki (pM)): > 1000 pM

Compound: CC(C)CN(CC(O)C(Cc1ccc(OCP(=O)(OCc2ccccc2)OCc2ccccc2)cc1)NC(=O)OC1COC2OCCC12)S(=O)(=O)N1CCN(C)CC1 (stereo not shown)
- Ki (Ki (pM)): 100 to 1000 pM

Compound: CC(C)CN(CC(O)C(Cc1ccc(OCP(=O)(O)O)cc1)NC(=O)OC1COC2OCCC12)C(=O)OC(C)(C)C (stereo not shown)
- Ki (Ki (pM)): > 1000 pM

Compound: CC(C)CN(CC(O)C(Cc1ccc(OCP(=O)(OCc2ccccc2)OCc2ccccc2)cc1)NC(=O)OC1COC2OCCC12)C(=O)OC(C)(C)C (stereo not shown)
- Ki (Ki (pM)): > 1000 pM

Compound: CC(C)CN(CC(O)C(Cc1ccccc1)NC(=O)OC1COC2OCCC12)S(=O)(=O)c1ccc(OCP(=O)(OCc2ccccc2)OCc2ccccc2)cc1 (stereo not shown)
- Ki (Ki (pM)): 100 to 1000 pM

Compound: CCOP(=O)(COc1cc(S(=O)(=O)N(CC(C)C)CC(O)C(Cc2ccccc2)NC(=O)OC2COC3OCCC23)ccc1OC)OCC (stereo not shown)
- Ki (Ki (pM)): 100 to 1000 pM

Compound: COc1ccc(S(=O)(=O)N(CC(C)C)CC(O)C(Cc2ccccc2)NC(=O)OC2COC3OCCC23)cc1OCP(=O)(OCc1ccccc1)OCc1ccccc1 (stereo not shown)
- Ki (Ki (pM)): > 1000 pM

Compound: CCOP(=O)(COc1cc(S(=O)(=O)N(CC(C)C)CC(O)C(Cc2ccccc2)NC(=O)OC2COC3OCCC23)ccc1O)OCC (stereo not shown)
- Ki (Ki (pM)): 100 to 1000 pM

Compound: CCOP(=O)(COc1ccc(CC2C(O)C(O)C(Cc3ccccc3)N(Cc3ccccc3)C(=O)N2Cc2ccccc2)cc1)OCC (stereo not shown)
- Ki (read-out: Enzymatic assay Ki): 656 pM
- IC50 [1]: 3.9 nM

Compound: CCOC(=O)CNP(=O)(COc1ccc(CC(NC(=O)OC2COC3OCCC23)C(O)CN(CC(C)C)S(=O)(=O)c2ccc(OC)cc2)cc1)NCC(=O)OCC (stereo not shown) [Compound 16a]
- Ki (HIV-1 protease inhibition Ki): 29 ± 8.2 pM

Compound: CCCCOC(=O)C(CC)NP(=O)(COc1ccc(CC(NC(=O)OC2COC3OCCC23)C(O)CN(CC(C)C)S(=O)(=O)c2ccc(OC)cc2)cc1)NC(CC)C(=O)OCCCC (stereo not shown) [Example 16f]
- Ki (HIV-1 protease inhibition Ki): 3.5 ± 1.4 pM

Compound: CCCCOC(=O)C(CC(C)C)NP(=O)(COc1ccc(CC(NC(=O)OC2COC3OCCC23)C(O)CN(CC(C)C)S(=O)(=O)c2ccc(OC)cc2)cc1)NC(CC(C)C)C(=O)OCCCC (stereo not shown) [Example 16h]
- Ki (HIV-1 protease inhibition Ki): 31.7 ± 19.3 pM

Compound: CCOC(=O)C(C)NP(=O)(COc1ccc(CC(NC(=O)OC2COC3OCCC23)C(O)CN(CC(C)C)S(=O)(=O)c2ccc(OC)cc2)cc1)OCc1ccccc1 (stereo not shown) [Example 30e]
- Ki (Ki): < 10 pM

Compound: CCOP(=O)(COc1ccc(S(=O)(=O)N(CC(C)C)CC(O)C(Cc2ccc(N)cc2)NC(=O)OC2COC3OCCC23)cc1)OCC (stereo not shown) [NH2, OEt]
- Ki (read-out: Ki): 100 to 1000 pM

Compound: CCOP(=O)(COc1ccc(S(=O)(=O)N(CC(C)C)CC(O)C(Cc2ccc(N(C)C)cc2)NC(=O)OC2COC3OCCC23)cc1)OCC (stereo not shown) [NMe2, OEt]
- Ki (read-out: Ki): 10 to 100 pM

Compound: CC(C)CN(CC(O)C(Cc1ccc(OCCN(C)C)cc1)NC(=O)OC1COC2OCCC12)S(=O)(=O)c1ccc(OCP(=O)(OCc2ccccc2)OCc2ccccc2)cc1 (stereo not shown) [OC2H4-NMe2, OBn]
- Ki (read-out: Ki): 10 to 100 pM

Compound: CC(C)CN(CC(O)C(Cc1ccc(OCCN(C)C)cc1)NC(=O)OC1COC2OCCC12)S(=O)(=O)c1ccc(OCP(=O)(O)O)cc1 (stereo not shown) [OC2H4NMe2, OH]
- Ki (read-out: Ki): < 10 pM

Compound: Nc1n[nH]c2ccc(CN3C(=O)N(CCCOCP(=O)(O)O)C(Cc4ccccc4)C(O)C(O)C3Cc3ccccc3)cc12 (stereo not shown) [OCH2PO3H2]
- Ki (read-out: Ki): 809 pM

Compound: CCOP(=O)(COc1ccc(CC2C(O)C(O)C(Cc3ccc(OC)cc3)N(Cc3cccc(N)c3)C(=O)N2Cc2cccc(N)c2)cc1)OCC (stereo not shown) [OCH3/Ph-mNH2/OCH2PO3Et2]
- IC50: 3.6 nM
- Ki (Enzymatic assay Ki (nM)): < 10 pM

Compound: CCOP(=O)(CCNC(=O)Oc1ccc(CC2C(O)C(O)C(Cc3ccc(OC)cc3)N(Cc3cccc(N)c3)C(=O)N2Cc2cccc(N)c2)cc1)OCC (stereo not shown) [OCH3/Ph-mNH2/OCONH(CH2)2PO3Et2]
- IC50 [1]: 11.3 nM

Compound: CCOP(=O)(CCNC(=O)Oc1ccc(CC2C(O)C(O)C(Cc3ccc(OC)cc3)N(Cc3ccc(O)cc3)C(=O)N2Cc2ccc(O)cc2)cc1)OCC (stereo not shown) [OCH3/Ph-pOH/OCONH(CH2)2PO3Et2]
- IC50: 6.6 nM

Compound: CC(C)CN(CC(O)C(Cc1ccccc1)NC(=O)OC1COC2OCCC12)S(=O)(=O)c1ccc(OCP(=O)(O)NC(C)C(=O)O)cc1 (stereo not shown) [OH, Ala-OH]
- Ki (pM): + +

Compound: CC(C)CN(CC(O)C(Cc1ccc(O)cc1)NC(=O)OC1COC2OCCC12)S(=O)(=O)c1ccc(OCP(=O)(OCc2ccccc2)OCc2ccccc2)cc1 (stereo not shown) [OH, OBn]
- Ki (read-out: Ki): 10 to 100 pM

Compound: CC(C)CN(CC(O)C(Cc1ccc(O)cc1)NC(=O)OC1COC2OCCC12)S(=O)(=O)c1ccc(OCP(=O)(O)O)cc1 (stereo not shown) [OH, OH]
- Ki (read-out: Ki): 10 to 100 pM

Compound: CC(C)CN(CC(O)C(Cc1ccc(O)cc1)NC(=O)OC1COC2OCCC12)S(=O)(=O)c1cccc(N)c1 (stereo not shown) [OH, m-NH2]
- Ki (pM): + +

Compound: CC(C)CN(CC(O)C(Cc1ccc(O)cc1)NC(=O)OC1COC2OCCC12)S(=O)(=O)c1ccc(N)cc1 (stereo not shown) [OH, p-NH2]
- Ki (pM): + +

Compound: COc1ccc(S(=O)(=O)N(CC(C)C)CC(O)C(Cc2ccc(OCP(=O)(OCC(F)(F)F)OCC(F)(F)F)cc2)NC(=O)OC2COC3OCCC23)cc1 (stereo not shown) [drawing 608 R1=OCH2CF3 R2=OCH2CF3]
- Ki (Ki): 10 to 100 pM

Compound: CCOP(=O)(COc1ccc(CC(NC(=O)OC2COC3OCCC23)C(O)CN(CC(C)C)S(=O)(=O)c2ccc(OC)cc2)cc1)OCc1ccccc1 (stereo not shown) [drawing 608 R1=OEt R2=OBn]
- Ki (Ki): 10 to 100 pM

Compound: COc1ccc(S(=O)(=O)N(CC(C)C)CC(O)C(Cc2ccc(OCP(=O)(O)O)cc2)NC(=O)OC2COC3OCCC23)cc1 (stereo not shown) [drawing 608 R1=OH R2=OH]
- Ki (Ki): < 10 pM

Like-named read-outs stand apart in the source and are kept apart here.
